From patent EP4512396A1, “TARGETED COVALENT INHIBITORS FOR CARBONIC ANHYDRASES” (Vilnius University, priority 2023, dated 2025)

Chains of the proteins cited; added tags and fusions are not shown. Lines headed by an entry give the natural chain unless they say otherwise; changes in a name come on top.
UniProt P00915: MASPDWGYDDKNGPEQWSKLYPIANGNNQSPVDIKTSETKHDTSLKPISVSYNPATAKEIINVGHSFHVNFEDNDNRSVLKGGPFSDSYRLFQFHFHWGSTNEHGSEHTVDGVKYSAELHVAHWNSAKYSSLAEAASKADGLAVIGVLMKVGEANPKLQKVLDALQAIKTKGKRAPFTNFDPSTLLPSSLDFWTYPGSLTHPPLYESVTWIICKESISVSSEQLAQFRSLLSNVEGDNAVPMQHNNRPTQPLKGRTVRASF

Experiments:
[1] = molecular target: CAIX (Homo sapiens, UniProt Q16790); test: fluorescent thermal shift assay (FTSA); assay type: binding; conditions: FTSA at 37 °C and pH 7.0, read-out: Kd_app
[2] = molecular target: CAI (Homo sapiens, UniProt P00915); test: fluorescent thermal shift assay (FTSA); assay type: binding; conditions: FTSA at 37 °C and pH 7.0, read-out: Kd_app

CC(=O)OCCSc1c(F)c(F)c(S(N)(=O)=O)c(F)c1F [AV19-36, 2-((2,3,5,6-tetrafluoro-4-sulfamoylphenyl)thio)ethyl acetate]
Kd [1]: 20 nM | Kd [2]: 0.2 nM
